Results: BindingDB's records for 19027295

Protein sequences, listed by entry. Tags and fused reporters are not part of them. Residues count along the entry.
UniProt P43681, 27-627 limits assumed: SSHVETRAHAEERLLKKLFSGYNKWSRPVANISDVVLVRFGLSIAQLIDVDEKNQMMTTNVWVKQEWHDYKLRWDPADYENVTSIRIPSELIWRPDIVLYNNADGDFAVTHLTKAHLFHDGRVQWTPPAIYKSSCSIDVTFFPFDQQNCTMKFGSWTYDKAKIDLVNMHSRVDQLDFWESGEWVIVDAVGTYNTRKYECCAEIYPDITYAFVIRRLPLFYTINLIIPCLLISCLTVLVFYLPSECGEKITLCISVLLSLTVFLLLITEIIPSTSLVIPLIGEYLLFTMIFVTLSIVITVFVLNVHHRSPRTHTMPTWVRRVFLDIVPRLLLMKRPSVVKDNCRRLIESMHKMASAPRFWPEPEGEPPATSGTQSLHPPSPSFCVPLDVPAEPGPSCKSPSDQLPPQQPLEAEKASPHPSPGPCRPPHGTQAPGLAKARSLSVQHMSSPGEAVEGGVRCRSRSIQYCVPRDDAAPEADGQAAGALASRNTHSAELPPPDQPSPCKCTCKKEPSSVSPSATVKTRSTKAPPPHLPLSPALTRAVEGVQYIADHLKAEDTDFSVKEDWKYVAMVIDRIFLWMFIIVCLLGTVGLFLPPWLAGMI

Experiments:
[1] = molecular target: T1, Neuronal acetylcholine receptor subunit alpha-4 (Homo sapiens, UniProt P43681); assay: ASSAY_NAME: ChEMBL_558773 (CHEMBL1020766) DESCRIPTION: Displacement of [3H]epibatidine from alpha4beta2 nAChR expressed in HEK293 cells
[2] = molecular target: T1, Neuronal acetylcholine receptor subunit alpha-4; assay: ASSAY_NAME: ChEMBL_558775 (CHEMBL1020768) DESCRIPTION: Displacement of [3H]epibatidine from alpha4beta4 nAChR expressed in HEK293 cells

CN(C)C(=O)OCCC(C1CC1)N(C)C (configuration not stated)
Ki [1]: 6.31 µM
Ki [2]: 3.98 µM
